Results taken from ChEMBL document CHEMBL4007405 (J Med Chem, 2017).

Biological target: T1, Disintegrin and metalloproteinase domain-containing protein 17 (Homo sapiens, UniProt P78536)
Test: Inhibition of recombinant human TACE extracellular domain (215 to 671 residues) assessed as inhibition of proteolytic activity preincubated for 30 mins prior to addition of Mca-Pro-Leu-Ala-Gln-Ala-Val-Dpa-Arg-Ser-Ser-Ser-Arg-NH2 as substrate measured every 2 mins for 3 hrs by fluorescence analysis

Row | SMILES | IC50 [nM]
1 | CC[C@H](C)[C@@H]1NC(=O)CNC(=O)[C@H](CCCNC(=N)N)NC(=O)[C@H](CCCNC(=N)N)NC(=O)[C@@H]2CSSC[C@H](NC1=O)C(=O)N[C@@H](CCCNC(=N)N)C(=O)N[C@H]1CSSC[C@H](NC(=O)[C@H](CCCNC(=N)N)NC(=O)[C@@H]3CSSC[C@H](NC(=O)[C@H]([C@@H](C)CC)NC1=O)C(=O)N[C@@H]([C@@H](C)O)C(=O)N[C@@H](CCCNC(=N)N)C(=O)NCC(=O)N[C@@H](Cc1ccccc1)C(=O)N3)C(=O)N[C@@H](CC(C)C)C(=O)N2 | 3860
2 | CC[C@H](C)[C@@H]1NC(=O)[C@@H]2CSSC[C@H](NC(=O)[C@H](CCCNC(=N)N)NC(=O)[C@@H]3CSSC[C@H](NC1=O)C(=O)N[C@@H]([C@@H](C)O)C(=O)N[C@@H](CCCNC(=N)N)C(=O)NCC(=O)N[C@@H](Cc1ccccc1)C(=O)N3)C(=O)N[C@@H](CC(C)C)C(=O)N[C@H]1CSSC[C@H](NC(=O)[C@H](C(C)C)NC(=O)[C@H](CC(=O)O)NC(=O)[C@H](CCCNC(=N)N)NC(=O)[C@H](CCCNC(=N)N)NC1=O)C(=O)N[C@@H](CCCNC(=N)N)C(=O)N2 | 1130
3 | CC[C@H](C)[C@@H]1NC(=O)[C@@H]2CSSC[C@H](NC(=O)[C@H](CCCNC(=N)N)NC(=O)[C@@H]3CSSC[C@H](NC1=O)C(=O)N[C@@H]([C@@H](C)O)C(=O)N[C@@H](CCCNC(=N)N)C(=O)NCC(=O)N[C@@H](Cc1ccccc1)C(=O)N3)C(=O)N[C@@H](CC(C)C)C(=O)N[C@H]1CSSC[C@H](NC(=O)[C@H](C(C)C)NC(=O)[C@H](CCCNC(=N)N)NC(=O)[C@H](CCCNC(=N)N)NC(=O)[C@H](CCCNC(=N)N)NC1=O)C(=O)N[C@@H](CCCNC(=N)N)C(=O)N2 | 870
4 | CC[C@H](C)[C@@H]1NC(=O)[C@@H]2CSSC[C@H](NC(=O)[C@H](CCCNC(=N)N)NC(=O)[C@@H]3CSSC[C@H](NC1=O)C(=O)N[C@@H]([C@@H](C)O)C(=O)N[C@@H](CCCNC(=N)N)C(=O)NCC(=O)N[C@@H](Cc1ccccc1)C(=O)N3)C(=O)N[C@@H](CC(C)C)C(=O)N[C@H]1CSSC[C@H](NC(=O)[C@H](Cc3c[nH]c4ccccc34)NC(=O)CNC(=O)[C@H](CCCNC(=N)N)NC(=O)[C@H](CCCNC(=N)N)NC1=O)C(=O)N[C@@H](CCCNC(=N)N)C(=O)N2 | 175
5 | CC[C@H](C)[C@@H]1NC(=O)[C@@H]2CSSC[C@H](NC(=O)[C@H](CCCNC(=N)N)NC(=O)[C@@H]3CSSC[C@H](NC1=O)C(=O)N[C@@H]([C@@H](C)O)C(=O)N[C@@H](CCCNC(=N)N)C(=O)NCC(=O)N[C@@H](Cc1ccccc1)C(=O)N3)C(=O)N[C@@H](CC(=O)O)C(=O)N[C@H]1CSSC[C@H](NC(=O)[C@H](C(C)C)NC(=O)CNC(=O)[C@H](CCCNC(=N)N)NC(=O)[C@H](CCCNC(=N)N)NC1=O)C(=O)N[C@@H](CCCNC(=N)N)C(=O)N2 | 1140
6 | CC[C@H](C)[C@@H]1NC(=O)[C@@H]2CSSC[C@H](NC(=O)[C@H](CCCNC(=N)N)NC(=O)[C@@H]3CSSC[C@H](NC1=O)C(=O)N[C@@H]([C@@H](C)O)C(=O)N[C@@H](CCCNC(=N)N)C(=O)NCC(=O)N[C@@H](Cc1ccccc1)C(=O)N3)C(=O)N[C@@H](Cc1c[nH]c3ccccc13)C(=O)N[C@H]1CSSC[C@H](NC(=O)[C@H](C(C)C)NC(=O)CNC(=O)[C@H](CCCNC(=N)N)NC(=O)[C@H](CCCNC(=N)N)NC1=O)C(=O)N[C@@H](CCCNC(=N)N)C(=O)N2 | 950

Biological target: T1, Disintegrin and metalloproteinase domain-containing protein 17
Test: not given

Row | SMILES | IC50 [nM]
7 | CC[C@H](C)[C@@H]1NC(=O)[C@@H]2CSSC[C@H](NC(=O)[C@H](CCCNC(=N)N)NC(=O)[C@@H]3CSSC[C@H](NC1=O)C(=O)N[C@@H]([C@@H](C)O)C(=O)N[C@@H](CCCNC(=N)N)C(=O)NCC(=O)N[C@@H](Cc1ccccc1)C(=O)N3)C(=O)N[C@@H](CC(C)C)C(=O)N[C@H]1CSSC[C@H](NC(=O)[C@H](Cc3c[nH]c4ccccc34)NC(=O)CNC(=O)[C@H](CCCNC(=N)N)NC(=O)[C@H](CCCNC(=N)N)NC1=O)C(=O)N[C@@H](CCCNC(=N)N)C(=O)N2 | 3.8 to 10
